## scFv variants of Ab-14 (light chain) against a SARS-CoV-2 spike peptide

Values reported by Li et al. 2023, doi:10.1038/s41467-023-39022-2 (FLAb copy).

All variants were tested on one target, the spike HR2 peptide PDVDLGDISGINAS (SARS-CoV-2).

Parent: Ab-14, a human scFv built as VH, a (GGGGS)3 linker, VL. Only the CDRs of the light chain vary.
VH: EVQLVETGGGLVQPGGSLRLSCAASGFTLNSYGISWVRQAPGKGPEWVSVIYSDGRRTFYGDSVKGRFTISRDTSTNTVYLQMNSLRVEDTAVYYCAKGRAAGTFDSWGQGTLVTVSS
VL: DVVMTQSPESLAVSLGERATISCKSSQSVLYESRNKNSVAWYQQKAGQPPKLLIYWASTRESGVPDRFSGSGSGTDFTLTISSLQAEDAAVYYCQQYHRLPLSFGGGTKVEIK

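The parent was found by panning a naive human phage display library on the peptide. The variants were designed computationally from a first round of random CDR variants and then made and measured. Group labels follow the data file (En: ensemble of fine-tuned language models; GP: Gaussian process model; HC: hill climbing; Gen: genetic algorithm; Gibbs: Gibbs sampling; a sequence that several methods proposed may carry one label only). The assay is AlphaSeq: two haploid yeast populations carry antibody and antigen on their surface. After mating in shaken culture at 30 °C for 16 h, diploids were selected and their barcode pairs sequenced. A regression on co-assayed BCL2-family reference pairs converts the normalised counts of each replicate to an apparent Kd. Mating was done six times.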

The parent's light chain CDRs are KSSQSVLYESRNKNSVA, WASTRES, QQYHRLPLS; each variant's own CDRs replace them letter for letter.
This list holds designs with more than six substitutions.
Affinities are written as log10 Kd with Kd in nM; a lower number is a better binder.
Replicates are averaged; those with no signal do not enter the mean.
An entry "no signal" has no value in the source: the pair was not observed among the diploids in any replicate. This suggests poor binding but is not conclusive.
Nonspecific signal, from three strains lacking the peptide, appeared in 4% of pairings of all light chain designs, centred on 2.64 (5% of these signals below 1.59); values are not corrected for it. Also given: how often the same scFv was detected with the empty control strains.
In the paper, a design with two or fewer of six values counts as a poor binder.
Values of this round are not directly comparable with the first-round values of the same sequences.
The parent sequence was in this pool as ten entries: three were never detected, three once, and four in most replicates, with averages from 0.34 to 2.37.

The variant KLQWSNLYWSRNKNSVA / QASTRLM / QQYHRLPLS [GP_Gibbs] gave 1.45 (6 of 6 replicates; controls 1 of 18). With TLTQVTMVESYNKNSVA / QASTREE / QDYHRLPLS [En_HC] the result was 0.25 (6 of 6 replicates; controls 0 of 18). The variant HVAMLLGQQHGKQANVA / EADELMT / QQYYHLPLA [En_Gibbs] showed no signal (0 of 6 replicates; controls 0 of 18). For QLGKNQVGETLMQHAIA / HDALRAD / QQYFRLPLL [En_Gibbs], the assay gave 0.19 (6 of 6 replicates; controls 0 of 18). The variant IVSQLMLWGMHLKNSIA / EAQTRLN / QQYDRLPLF [En_Gen] gave no signal (0 of 6 replicates; controls 0 of 18). The variant KFGQGVHVESIMKNSIA / QTSTREE / QQYDRLPLS [En_HC] gave 0.27 (6 of 6 replicates; controls 1 of 18). With ALNAHRLVAIEAKNSIA / NAVMRED / QQYAQLPLM [En_Gibbs] the result was 0.66 (6 of 6 replicates; controls 0 of 18).

The variant KLSMITGHMSMSKNNVA / EMVTRMK / QQYNRLPLS [En_Gen] showed 0.35 (6 of 6 replicates; controls 1 of 18). With QTTPFGIQKDEESNNVA / HDSVRAE / QQYFRLPLV [En_Gibbs] the result was 0.82 (6 of 6 replicates; controls 1 of 18). For KISTSALYESINKNNVA / ELSTRGS / QQYERLPLS [En_HC], the assay gave no signal (0 of 6 replicates; controls 0 of 18). The variant MISQLYNFGTFAINSVA / QASLRCN / QQYDRLPLA [En_Gen] showed 1.40 (1 of 6 replicates; controls 0 of 18). With TLQDWGIYGMENMNRIA / ERSKLEM / QQYGRLPLS [En_Gibbs] the result was 0.32 (6 of 6 replicates; controls 0 of 18). The variant HISMMVGTKGYNKNSVA / NAETRED / QQYHRLPLS [En_HC] gave 2.26 (6 of 6 replicates; controls 2 of 18). The variant ILSQSVLMGMHTKNSVA / QAQMRFN / QQYHRLPLM [En_HC] gave 1.20 (6 of 6 replicates; controls 1 of 18).

For MLSDLVKMGSRNGNSVA / DNSTRGS / QQYDRLPLS [En_HC], the assay gave 2.23 (3 of 6 replicates; controls 0 of 18). With TLGYQPTEMRDNKHAVA / DDEQRTR / QQYMRLPLS [En_Gibbs] the result was -0.24 (6 of 6 replicates; controls 0 of 18). With RLSASQGIQSVERNSVA / QNSTREE / QQYDHLPLS [En_Gen] the result was 1.57 (2 of 6 replicates; controls 0 of 18). The variant MVTQMAMSGMTNKRSVA / NAETRED / QQYNRLPLI [En_Gen] gave 1.33 (6 of 6 replicates; controls 0 of 18). With TIGQMFNGESRIRNSVA / QASTREE / QSYDRLPLS [En_HC] the result was 1.27 (6 of 6 replicates; controls 0 of 18). The variant HLSQSVGYEMRNKNSVA / EAQTREQ / QQYHRLPLS [GP_Gibbs] showed -0.11 (6 of 6 replicates; controls 1 of 18). The variant NIVEDNAGDQKNSSNIA / SVDQRED / QQYQRLPLM [En_Gibbs] showed 0.74 (6 of 6 replicates; controls 0 of 18).

With MISQSFLIGSRAKNSVA / QTSTREE / QQYDRLPLS [En_HC] the result was 0.14 (6 of 6 replicates; controls 0 of 18). The variant HVNHEQLDYKNYENNIA / HESQRLY / QQYSHLPLS [En_Gibbs] showed 0.42 (6 of 6 replicates; controls 3 of 18). The variant KLSVSWLFESIEKNSVA / ERSTRGS / QDYNRLPLS [En_HC] showed 1.64 (6 of 6 replicates; controls 0 of 18). The variant MISQLMNMGTFAINSVA / QASIRNS / QQYDRLPLT [En_Gen] showed 2.20 (1 of 6 replicates; controls 0 of 18). With MVTQMAMSGMSNKRSVA / NAETREH / QQYHRLPLI [En_Gen] the result was 0.50 (6 of 6 replicates; controls 0 of 18). The variant KISSLTMYESVQKNNIA / EMSTRPS / QSYHRLPLS [En_HC] showed 0.99 (6 of 6 replicates; controls 2 of 18). The variant SMEWEEWNGQSKKHNIA / ADTKVLE / QQYFRLPFY [En_Gibbs] gave 2.13 (4 of 6 replicates; controls 0 of 18).

With KLSQSVEGEERNKNSVA / HASVREV / QQYHRLPLS [GP_Gibbs] the result was -0.20 (6 of 6 replicates; controls 0 of 18). For NLSLSMLHESINKHSVA / EVRTRES / QQYDRLPLS [En_HC], the assay gave 0.78 (6 of 6 replicates; controls 0 of 18). The variant KFSQSWWYESRVKNNVA / NASQRES / QQYHRLPLS [GP_Gibbs] gave 0.11 (6 of 6 replicates; controls 0 of 18). The variant MVNGIMDHLSKNSNSVA / ETVTREE / QQYDRLPLS [En_Gen] showed 0.83 (6 of 6 replicates; controls 2 of 18). The variant KVEQSVMLESRWKNSVA / NASTRMS / QQYHRLPLS [GP_Gibbs] showed 0.15 (6 of 6 replicates; controls 1 of 18). The variant TMDFQDLMWQYDANNIA / GATLSIE / QQYGRLPLT [En_Gibbs] showed 0.33 (6 of 6 replicates; controls 0 of 18). For TISQSFFMENQFKNSVA / QASTRES / QCYDRLPLS [En_HC], the assay gave 1.25 (6 of 6 replicates; controls 1 of 18).

The variant HITYGMMVHGRHSKSIA / QAETRAK / QQYDRLPLI [En_Gen] showed 1.73 (5 of 6 replicates; controls 0 of 18). The variant HISQSFMTESVWRNSVA / HQSTREQ / QQYDRLPLS [En_HC] gave 0.84 (6 of 6 replicates; controls 2 of 18). For HVSESVFAQSKMKNSVA / ENSTRES / QQYDRLPLS [En_HC], the assay gave 2.03 (5 of 6 replicates; controls 0 of 18). The variant KISQMVRVGSTHVNSIA / EEVTRAK / QQYHRLPLS [En_Gen] showed 0.76 (6 of 6 replicates; controls 0 of 18). The variant MISQLMNAGQFAINSVA / QASIRNS / QQYDRLPLM [En_Gen] showed 1.33 (6 of 6 replicates; controls 1 of 18). The variant KLSITGLHESIDKKSIA / ERSTREN / QQYHRLPLS [En_HC] gave 0.27 (6 of 6 replicates; controls 0 of 18). For KLRELIHVESKQKNNVA / DNSTRES / QDYHRLPLS [En_HC], the assay gave 1.80 (6 of 6 replicates; controls 0 of 18).

With ALSQSMDMTSRNKNSVA / DLETREN / QQYHRLPLS [En_HC] the result was 0.13 (6 of 6 replicates; controls 2 of 18). The variant TISQMTSLFEQSINNVA / EVTTREN / QQYDRLPLI [En_Gen] gave 2.38 (4 of 6 replicates; controls 0 of 18). With KIGMTLNQLYEKVNNVA / DLVTREN / QQYHRLPLS [En_Gen] the result was 0.11 (6 of 6 replicates; controls 1 of 18). The variant HITMGMYVSGRHHSNIA / QAEERAK / QQYDRLPLI [En_Gen] showed 0.83 (6 of 6 replicates; controls 1 of 18). With MISQLYNMGQFAINSVA / QAEIRNA / QQYDRLPLA [En_Gen] the result was 2.67 (3 of 6 replicates; controls 0 of 18). For HVGQTRQADISNKKSIA / AGETLID / QQYGRLPFS [En_Gibbs], the assay gave 0.15 (6 of 6 replicates; controls 1 of 18). For IVSQLMMWGMVAKNSIA / EAVTRIN / QQYDRLPLF [En_Gen], the assay gave 1.18 (5 of 6 replicates; controls 1 of 18).

The variant TLMHHQDRQDEWKKSIA / NAIIREF / QQYSRLPLA [En_Gibbs] showed 2.12 (6 of 6 replicates; controls 0 of 18). With TVSQVHDMLSRNKNSVA / DENTRES / QQYDRLPLS [En_HC] the result was 1.07 (6 of 6 replicates; controls 1 of 18). For MLTWDDDHETGRQNSIA / DAHERNT / QQYHQLPLI [En_Gibbs], the assay gave 0.39 (6 of 6 replicates; controls 0 of 18).

Picked from the list: the 5 lowest averages where every replicate gave a value.

{"CDR-L1": "TLGYQPTEMRDNKHAVA", "CDR-L2": "DDEQRTR", "CDR-L3": "QQYMRLPLS", "group": "En_Gibbs", "mean log10 Kd (nM)": "-0.24", "replicates with signal": "6 of 6", "empty controls": "0 of 18"}
{"CDR-L1": "KLSQSVEGEERNKNSVA", "CDR-L2": "HASVREV", "CDR-L3": "QQYHRLPLS", "group": "GP_Gibbs", "mean log10 Kd (nM)": "-0.20", "replicates with signal": "6 of 6", "empty controls": "0 of 18"}
{"CDR-L1": "HLSQSVGYEMRNKNSVA", "CDR-L2": "EAQTREQ", "CDR-L3": "QQYHRLPLS", "group": "GP_Gibbs", "mean log10 Kd (nM)": "-0.11", "replicates with signal": "6 of 6", "empty controls": "1 of 18"}
{"CDR-L1": "KFSQSWWYESRVKNNVA", "CDR-L2": "NASQRES", "CDR-L3": "QQYHRLPLS", "group": "GP_Gibbs", "mean log10 Kd (nM)": "0.11", "replicates with signal": "6 of 6", "empty controls": "0 of 18"}
{"CDR-L1": "KIGMTLNQLYEKVNNVA", "CDR-L2": "DLVTREN", "CDR-L3": "QQYHRLPLS", "group": "En_Gen", "mean log10 Kd (nM)": "0.11", "replicates with signal": "6 of 6", "empty controls": "1 of 18"}